Patent US5859257A (dated 1999)

target: COX-1; assay: Evaluation of COX-1 activity in vitro (PGE2 ELISA, recombinant enzyme); type: biochemical, human or murine; conditions: read-out: COX-1 IC50, arachidonic acid 10 μM, pH 8.0, pre-incubation 10-20 minutes

| SMILES | IC50 |
| --- | --- |
| Cc1onc(-c2ccccc2)c1-c1ccc(S(N)(=O)=O)cc1 [Example 1, 4-[5-Methyl-3-phenylisoxazol-4-yl]benzenesulfonamide] | > 100000 nM |

target: COX-2; assay: Evaluation of COX-2 activity in vitro (PGE2 ELISA, recombinant enzyme); type: biochemical, human or murine; conditions: read-out: COX-2 IC50, arachidonic acid 10 μM, pH 8.0, pre-incubation 10-20 minutes

| SMILES | IC50 |
| --- | --- |
| NS(=O)(=O)c1ccc(-c2c(-c3ccccc3)noc2C2CCCCC2)cc1 [Example 1f, 4-[5-cyclohexyl-3-phenylisoxazol-4-yl]benzenesulfonamide] | 200 nM |
| NS(=O)(=O)c1ccc(-c2c(-c3ccccc3)noc2CC(=O)O)cc1 [Example 9, [4-[4-(Aminosulfonyl)phenyl]-3-phenylisoxazol-5-yl]acetic acid] | 1400 nM |
| Cc1noc(-c2ccccc2)c1-c1ccc(S(N)(=O)=O)cc1 [Example 13, 4-[3-Methyl-5-phenylisoxazol-4-yl]benzenesulfonamide] | < 100 nM |
| CCc1noc(-c2ccccc2)c1-c1ccc(S(C)(=O)=O)cc1 [Example 29, 3-Ethyl-4-(4-methylsulfonylphenyl)-5-phenylisoxazole] | 300 nM |
| Cc1onc(-c2ccc(F)c(F)c2)c1-c1ccc(S(N)(=O)=O)cc1 [Example 49, 4-[3-(3,4-Difluorophenyl)-5-methylisoxazol-4-yl]benzenesulfonamide] | 1000 nM |
